Test results: PubChem BioAssay AID485297 (National Center for Advancing Translational Sciences (NCATS), 2010)
This is a selection; strong and weak results do not stand in their true shares. Inconclusive results are not listed. Some salts or complexes appear as unconnected parts, following the source record. Activity calls are given as the source filed them. Calls follow the shape of the dose curve; as a rule, active = well fitted activation curve with a large enough effect; inconclusive = small, poorly fitted or top-dose-only effect; inactive = no such curve, though single readings can be large or run the other way.

Experiment: qHTS Assay for Rab9 Promoter Activators; also: % of control where 0% means no effect; nearly all actives have a fitted effect of over 60% in size
Details: Huh7 Rab9 promoter-luciferase reporter, luminescence, 24 h; at 9.22 µM (top of the series) unless noted

SMILES	activation, negative = inhibition
CCCOc1ccc(C(=O)NCC2(N(C)C)CCCCC2)cc1	inactive: -0.0534%
CC(C)(C)OC(=O)N1CCC(Nc2ccccc2)CC1	inactive: -0.578%
O=C(O)C1(Nc2ccccc2)CCN(Cc2ccccc2)CC1	inactive: -1.59%
CCOc1ncccc1C(=O)NCC1(N2CCOCC2)CCCCC1	inactive: 0.378%
CN1CCC(Nc2ccc(F)c(Cl)c2)CC1	inactive: 3.1%
CCCOc1ccc(C)cc1CN(CCCl)CCCl	inactive: -2.83%
CN1CCC(Nc2ccc(Cl)cc2)CC1	inactive: 2.69%
CCC(CO)(C(=O)OC1CN2CCC1CC2)c1ccccc1 (stereo not given)	inactive: -4.11%
COc1cc(OC)cc(C(=O)NCC2(N3CCOCC3)CCCCC2)c1	inactive: 22.9%
COc1cccc(C(=O)N(c2cc(C)cc(C)c2)C2CCN(C(=O)OC(C)(C)C)CC2)c1	inactive: -5.25% [at 1.84 µM]
Cc1ccc(C(=O)NCC2(N3CCCCC3)CCCCC2)o1	inactive: -2.38%
Fc1ccccc1NC1CCN(Cc2ccccc2)CC1	inactive: 5.69%
COc1cc(OC)cc(C(=O)NCC2(N3CCCCC3)CCCCC2)c1	inactive: -6.28%
O=C(NCC1(N2CCCCC2)CCCCC1)c1ccco1	inactive: -1.33%
CN(C)c1ccc(C(=O)NCC2(N3CCCCC3)CCCCC2)cc1	inactive: -6%
CCN1CCC(Nc2cccc(F)c2)CC1	inactive: -8.3%
CCOC(=O)C(CC)C1=NC(C)(C)Cc2ccccc21.O=[N+]([O-])c1cc([N+](=O)[O-])c(O)c([N+](=O)[O-])c1 (stereo not given)	inactive: -9.68%
CC(C)(C)OC(=O)N1CCC(N(C(=O)c2ccccc2)c2ccc(Cl)cc2)CC1	inactive: -1.87%
N#Cc1ccc(C(=O)NCC2(N3CCCCC3)CCCCC2)cc1	inactive: -1.85%
c1ccc(CN2CCC(Nc3ccccc3)CC2)cc1	inactive: 4.66%
CCCN1CCC(Nc2cc(OC)cc(OC)c2)CC1	inactive: 1.57%
CN(C)C1(CNC(=O)c2cccc(C#N)c2)CCCCC1	inactive: -4.22%
COc1ccc(C(=O)NCC2(N3CCOCC3)CCCCC2)cc1OC	inactive: -19.3%
O=C(NCC1(N2CCOCC2)CCCCC1)c1cc(Br)ccc1Cl	inactive: -2.61%

SMILES	activation, negative = inhibition
O=C(OC1CN2CCC1CC2)C1c2ccccc2C=Cc2ccccc21 (stereo not given)	inactive: 2.48%
CCc1cc(C(=O)NCC2(N3CCCCC3)CCCCC2)sc1C	inactive: -5.85%
O=C(O)c1cccc(Nc2c([N+](=O)[O-])cc([N+](=O)[O-])cc2[N+](=O)[O-])c1	inactive: 0.0243%
N/C(=N\O)c1c(N)no[n+]1[O-]	inactive: -3.82%
CCOC(=O)N1CCC(Nc2ccc(C)cc2)CC1	inactive: -1.82%
COc1cc(OC)c(C(=O)NCC2(N(C)C)CCCCC2)cc1OC	inactive: 4.36%
COc1ccc(CN(CCCl)CCCl)cc1Cl	inactive: -1.68%
O=[N+]([O-])c1cc([N+](=O)[O-])c(OC2CCCCC2O)c([N+](=O)[O-])c1 (stereo not given)	inactive: 10.2%
CN(C)c1cccc(C(=O)NCC2(N3CCCCC3)CCCCC2)c1	inactive: -9.53%
CCCOc1ccc(C(=O)NCC2(N(C)C)CCCCC2)cc1OC	inactive: -4.97%
O=C(NCC1(N2CCCCC2)CCCCC1)c1cncc(Br)c1	inactive: -5.11%
COc1ccc2c(c1O)-c1c(O)c(OC)cc3c1[C@H](C2)[N+](C)(C)CC3.O=[N+]([O-])c1cc([N+](=O)[O-])c([O-])c([N+](=O)[O-])c1[O-]	inactive: -3.21%
O=C(OC1CN2CCC1CC2)c1ccc([N+](=O)[O-])cc1 (stereo not given)	inactive: 1.56%
CSc1ccc(C(=O)NCC2(N3CCOCC3)CCCCC2)cc1	inactive: -1.79%
CCN1CCC(Nc2ccc(Cl)cc2)CC1	inactive: 2.72%
N#CC1(Nc2ccccc2)CCN(CCc2ccccc2)CC1	inactive: 3.53%
O=C(NCC1(N2CCCCC2)CCCCC1)c1ccc(OC(F)F)cc1	inactive: -12.2%
CN1CCN(CCOC(=O)C(O)(c2ccccc2)c2ccccc2)CC1	inactive: -0.818%
COc1ccc(NC2CCN(C(=O)OC(C)(C)C)CC2)cc1	inactive: 4.34%
CC(C)c1ccc(C(=O)NCC2(N3CCOCC3)CCCCC2)cc1	inactive: -5.75%
COc1cc(C(=O)NCC2(N3CCCCC3)CCCCC2)ccc1OC(F)F	inactive: -9.92%
O=C(NCC1(N2CCOCC2)CCCCC1)c1cc(=O)[nH]c2ccccc12	inactive: -2.29%
O=C(NCC1(N2CCCCC2)CCCCC1)c1cccc(C(F)(F)F)c1	inactive: -5.52%
O=[N+]([O-])c1cc([N+](=O)[O-])c(NCC2CCS(=O)(=O)C2)c([N+](=O)[O-])c1 (stereo not given)	inactive: 10%

SMILES	activation, negative = inhibition
O=C(NCC1(N2CCCCC2)CCCCC1)c1ccc(F)cc1	inactive: -4.55%
CCCCOc1ccc(C(=O)NCC2(N3CCOCC3)CCCCC2)cc1	inactive: -7.41%
COc1ccc(NC2CCN(CCc3ccccc3)CC2)c(OC)c1	inactive: -3.39%
CCOC(=O)N1CCC(Nc2ccc(F)cc2)CC1	inactive: 4.04%
CCOc1ccc(C)cc1CN(CCCl)CCCl	inactive: -4.09%
COc1cc(C(=O)NCC2(N(C)C)CCCCC2)ccc1OC(F)F	inactive: -5.82%
CCOC(=O)N1CCC(Nc2cccc(C)c2)CC1	inactive: 0.401%
Cc1ccc(OCC(C)C)c(CN(CCCl)CCCl)c1	inactive: -2.98%
CSc1ccccc1C(=O)NCC1(N2CCCCC2)CCCCC1	inactive: -0.0228%
O=C(NCC1(N2CCCCC2)CCCCC1)c1ccc(=O)[nH]c1	inactive: -3.36%
O=C(NCC1(N2CCCCC2)CCCCC1)c1cccs1	inactive: 0.144%
COc1ccc(C(=O)NCC2(N3CCCCC3)CCCCC2)cc1	inactive: -11.4%
COc1ccc(C(=O)NCC2(N3CCCCC3)CCCCC2)c(OC)c1OC	inactive: -3.05%
CC(C)(C)OC(=O)N1CCC(N(C(=O)c2ccccc2)c2ccc(F)cc2)CC1	inactive: -1.65% [at 1.84 µM]
CCOC(=O)N1CCC(Nc2ccc(OC)cc2)CC1	inactive: 1.68%
O=C(OC1CN2CCC1CC2)C1c2ccccc2Oc2ccccc21 (stereo not given)	inactive: -2.33%
O=C(NCC1(N2CCCCC2)CCCCC1)c1ccc(Cl)s1	inactive: -8.44%
N#CC1(Nc2ccccc2)CCN(Cc2ccccc2)CC1	inactive: -1.83%
COc1ccc(Cl)cc1C(=O)NCC1(N2CCOCC2)CCCCC1	inactive: 0.792%
O=C(NCC1(N2CCOCC2)CCCCC1)c1cc2ccccc2o1	inactive: -1.25%
O=C(NCC1(N2CCCCC2)CCCCC1)c1ccc(Cl)nc1	inactive: -13.7%
Cc1cc(C)cc(N(C(=O)c2ccccc2)C2CCN(C(=O)OC(C)(C)C)CC2)c1	inactive: -0.337%
